# Apparent affinities of Ab-14 variants for a coronavirus HR2 peptide

The measurements come from Li et al. 2023 (doi:10.1038/s41467-023-39022-2) through the FLAb antibody collection.

Target peptide (SARS-CoV-2 spike, HR2 region): PDVDLGDISGINAS

Parent scFv Ab-14: VH joined to VL by three GGGGS repeats. Changes lie in the light chain CDRs alone.
VH: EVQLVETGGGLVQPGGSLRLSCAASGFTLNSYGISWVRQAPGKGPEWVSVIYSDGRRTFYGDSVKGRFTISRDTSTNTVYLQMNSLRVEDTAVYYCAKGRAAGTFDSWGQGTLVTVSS
VL: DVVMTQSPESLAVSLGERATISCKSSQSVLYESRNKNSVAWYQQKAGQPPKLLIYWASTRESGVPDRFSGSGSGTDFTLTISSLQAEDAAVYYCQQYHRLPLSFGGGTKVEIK

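Phage display of a naive human antibody library on the peptide gave the parent. The variants were designed computationally from a first round of random CDR variants and then made and measured. Several design methods are mixed in this list. The scFvs were displayed on barcoded MATa yeast, the peptide on MATalpha yeast. Mating (16 h, 30 °C) was followed by selection of diploids and sequencing of their barcodes. Read counts were normalised to the haploid input and turned into Kd by a linear fit to BCL2-family pairs of known affinity, for each replicate. Each pool was mated in six replicate cultures.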

The parent's light chain CDRs are KSSQSVLYESRNKNSVA, WASTRES, QQYHRLPLS; each variant's own CDRs replace them letter for letter.
Values are log10 of the apparent Kd in nM; lower means stronger binding.
A mean of the replicates is given; it leaves out those without a signal.
"no signal" marks a missing value. The strain was present, yet no cells mated with the target were sequenced in any replicate, which points to weak or no binding.
The list is sorted by this average, lowest first, undetected variants last.
Three control strains display no target. For all light chain designs, 4% of the pairings with them gave a signal, with a median of 2.64 and one signal in twenty below 1.59, so weak values seen in few replicates may be background.
A sequence measured in both rounds can read differently, since the two assays cover different ranges.
The authors averaged sequences with at least three values out of six and counted those with two or fewer as poor binders.

log10 Kd (nM), mean | seen in | CDR-L1 | CDR-L2 | CDR-L3
-0.76 | 6/6 | KLEGSHLYESRNANSVA | NASTRMS | QQYKRLPLS
-0.60 | 6/6 | KVEQSVPYESRNKNSVA | EASTRES | QQYHRLPLS
-0.43 | 6/6 | KLSQSVLYESRNKNNVA | DASTRES | QAYHRLPLS
-0.35 | 6/6 | KWSQSVLYESLNKNSVA | GASTRES | QQYHRLPLS
-0.35 | 6/6 | KLSQSVMYESRNKNSVA | NASQRES | QQYHRLPLS
-0.28 | 6/6 | KLPQSTLYESRNKNSVA | DASQRES | QQYHRLPLS
-0.24 | 6/6 | KLQQSVPYESRNKNSVA | EASTRES | QQYHRLPLS
-0.24 | 6/6 | KMSQSELYEDRNSNAVA | QASQRMS | QQYHRLPLS
-0.19 | 6/6 | HLSQSVGGESRNKNSVA | EAQTREQ | QQYHRLPLS
-0.17 | 6/6 | KMPQSWLYESRNKNSVA | NASQRES | QQYHRLPLS
-0.16 | 6/6 | KLDVSVLEKSRNKNSVA | QASTRES | QDYHRLPLS
-0.13 | 6/6 | KLEQSFLYESRNKNSVA | EASTRES | QQYHRLPLS
-0.12 | 6/6 | KVSISYLLESRNKNSVA | EAMTRES | QQYHRLPLS
-0.09 | 6/6 | KLSQSWLYESRNKNAVA | EASTRES | QQYHRLPLS
-0.06 | 6/6 | KLSQSVLYESRNKNSVA | HASTRCD | QQYHRLPLS
-0.03 | 6/6 | KVSESVLYESRNKNSVA | DASTRES | QQYHRLPLS
-0.02 | 6/6 | KLSQSVPYEDRNKNSVA | NASTRES | QQYHRLPLS
0.11 | 6/6 | KIGQTLNTLLHQKNNVA | DLVTREN | QQYFRLPLS
0.13 | 6/6 | HLSQSVLYESRNKNSVA | NASTREW | QQYHRLPLS
0.13 | 6/6 | KFSQEMLYESRNKNSVA | NASCRES | QQYWRLPLS
0.20 | 6/6 | KLSQSVLYESRNENSVA | NASTRES | QQYHRLPLS
0.23 | 6/6 | TISGLTNQAAMKSNSVA | NVTMRPD | QQYHRLPLS
0.25 | 6/6 | KFSPSFLYWSRNSNAVA | EASTRES | QQYHRLPLS
0.29 | 6/6 | KLSQSDLYESRNKNSVA | DASTRES | QAYHRLPLS
0.33 | 6/6 | KSSQSVLYESRNKNSVA | NASQRES | QQYHRLPLS
0.34 | 6/6 | KLEWSMLYESRNKNSVA | NASTRES | QQYHRLPLS
0.44 | 6/6 | MMSQVTTSGTRHRNNVA | QTSMRET | QQYDRLPLI
0.47 | 6/6 | KVSMLHWYESRNKNSVA | EASTREQ | QQYHRLPLS
0.57 | 6/6 | NVGQLMDGETRNKNSVA | HQSTRED | QHYHRLPLI
0.63 | 6/6 | ALELFEYQIMKDINSIA | NTETKTN | QQYVRLPFS
0.63 | 6/6 | TISQMFLGEQRNRNSVA | QASTRES | QSYDRLPLS
0.64 | 5/6 | KMQQSELMEERNSNSVA | SASLRES | QQYHRLPLS
0.66 | 6/6 | KLKTMPGEIPKEYNSIA | HAELRTP | QQYHRLPLI
0.66 | 6/6 | QIYQAMHTLMQAKNNIA | DVTNRQN | QQYHRLPLS
0.68 | 6/6 | KSSQSVLSQSRNKNSVA | DASTRES | QQYHRLPLS
0.69 | 6/6 | KSSQSVLYESRNKNSVA | KASTRES | QQYFRLPLS
0.72 | 6/6 | KIGATLNQMMHKKNNVA | DLVTREN | QQYFRLPLS
0.74 | 6/6 | RYQMDDNYGKGARNNVA | DGAEVRM | QQYARLPLL
0.75 | 1/6 | KDSQSVLFESRNKNSVA | WASTRES | QQYHRLPLS
0.79 | 6/6 | KQSQSVLSESRNCNSVA | DASTRES | QQYVRLPLS
0.83 | 6/6 | KISSLTMYESVNKNNIA | EMSTRPS | QSYHRLPLS
0.91 | 6/6 | KLSQATRMESRNKASVA | ENSTRES | QQYFRLPLS
0.96 | 6/6 | KYSQSHGGESRNKNSVA | HASLREV | QQYHRLPLS
1.02 | 6/6 | KSLGSWLYESRNKNSVA | HASTREQ | QQYHRLPLS
1.03 | 6/6 | KGMGSMLYEQRNKNSVA | NASQRES | QQYHRLPLS
1.06 | 5/6 | KLVGVDDNDNNPSHAIA | DVSTLDN | QQYHRLPLD
1.10 | 6/6 | KLSQSVLFFGHAINSVA | EMETREY | QQYDRLPLS
1.11 | 6/6 | KSSQSVLYESRNKNSVA | TASTRVS | QQYHRLPLS
1.13 | 6/6 | KVSDSAQFLSRNRNSVA | DNSTRGS | QQYHRLPLS
1.16 | 6/6 | KSSQSVLYEDKNVNSVA | HASQRMS | QQYHRLPLS
1.17 | 6/6 | KLTNVTGTEKVIGNNVA | EMETRER | QQYNRLPLS
1.20 | 6/6 | TIGQTLMTGVRNRSNVA | EVSERLN | QQYDRLPLL
1.31 | 6/6 | KSSQSVLYESNNKNSVA | YGSTRES | QQYHRLPLS
1.31 | 6/6 | ALVAQNEQNMDKLNSIA | DQSQTQE | QQYFRLPFA
1.37 | 6/6 | MISQLFMYGSRNYNSVA | QASTRES | QQYDHLPLI
1.53 | 3/6 | KSSQPVLYEARNKNSVA | WASTRES | QQYHRLPLS
1.75 | 6/6 | TISQHTSLFSQTINNVA | EVSTREQ | QQYDRLPLI
1.76 | 6/6 | QLYAVQDMTSKNSNNVA | EQNTREN | QQYHRLPLS
1.84 | 1/6 | KFSQKVLYENRTKNSVA | NASTRES | QQYHRLPLS
1.86 | 6/6 | KLSQSAPYEDRCFNSVA | HASTRES | QQYHRLPLS
1.91 | 6/6 | KLSSFHNLETINKSNVA | EMVTREN | QQYDRLPLS
1.91 | 1/6 | KIYGYMGTLNRQANSIA | DNTTRGN | QQYHRLPLS
1.95 | 5/6 | MISQLYNMGQFAINSVA | QANERCN | QQYDRLPLI
2.07 | 6/6 | KISQLVNFEGKLKNSVA | QMSTRES | QQYDRLPLS
2.09 | 5/6 | TLVGNIQGGGWMIKSIA | DNVQRAN | QQYYRLPLS
2.18 | 3/6 | MISMVMNTMTRHGNNVA | DLTERED | QQYFRLPLS
2.19 | 6/6 | KISQMFNVGTKNTNSLA | EMNTRGA | QHYHRLPLS
2.25 | 6/6 | KSAYSCLLESRNCNSVA | SASTREL | QQYHRLPLS
2.29 | 5/6 | MFSQLMEYGSRYVNSVA | QASTRED | QQYHWLPLS
2.36 | 1/6 | MLSQMWALGSKVSNSVA | QASMRFN | QQYDRLPLI
2.47 | 5/6 | KSSQSVLYESRNVNSVA | WASTRES | QQYQRLPLS
2.59 | 1/6 | KSSQSVLYESSNNNSVA | WAFTRES | QQYHRLPLS
no signal | 0/6 | WWSMSVMQESRNKNSVA | SASTREL | QQYHRLPLS
no signal | 0/6 | KSSQSVLRPSRNKNSVA | WASTRES | QQYERLPLS
no signal | 0/6 | ESSQSVLYESRNKNGVA | AASTRES | QQEHRLPLS
no signal | 0/6 | QITQVQQYDAPNTYNVA | DATVSGR | QQYSQLPLI
no signal | 0/6 | TSSQSVLYESRNKNSVA | WAGTRES | QQYFRLPLS

The 4 strongest on average among those seen in every replicate, once more:

CDR-L1 | CDR-L2 | CDR-L3 | log10 Kd (nM), mean | seen in
KLEGSHLYESRNANSVA | NASTRMS | QQYKRLPLS | -0.76 | 6/6
KVEQSVPYESRNKNSVA | EASTRES | QQYHRLPLS | -0.60 | 6/6
KLSQSVLYESRNKNNVA | DASTRES | QAYHRLPLS | -0.43 | 6/6
KWSQSVLYESLNKNSVA | GASTRES | QQYHRLPLS | -0.35 | 6/6